molecular target: T1, OX2 (Homo sapiens, UniProt O43614); assay: Orexin receptor cell-based functional assay, [Ca2+]i by FLIPR, CHO-OX2 cells; conditions: CHO-OX2 cells, [Ca2+]i by FLIPR, antagonist dose-range 0.1 nM-10 μM, EC90 of OXA; read-out: OX2
T1 construct: expressed in transfected cells; host or cells: CHO (CHO-OX2, kept under selection antibiotic)

The chains behind the UniProt entries cited, without tags or fusion partners.
UniProt O43614, whole entry: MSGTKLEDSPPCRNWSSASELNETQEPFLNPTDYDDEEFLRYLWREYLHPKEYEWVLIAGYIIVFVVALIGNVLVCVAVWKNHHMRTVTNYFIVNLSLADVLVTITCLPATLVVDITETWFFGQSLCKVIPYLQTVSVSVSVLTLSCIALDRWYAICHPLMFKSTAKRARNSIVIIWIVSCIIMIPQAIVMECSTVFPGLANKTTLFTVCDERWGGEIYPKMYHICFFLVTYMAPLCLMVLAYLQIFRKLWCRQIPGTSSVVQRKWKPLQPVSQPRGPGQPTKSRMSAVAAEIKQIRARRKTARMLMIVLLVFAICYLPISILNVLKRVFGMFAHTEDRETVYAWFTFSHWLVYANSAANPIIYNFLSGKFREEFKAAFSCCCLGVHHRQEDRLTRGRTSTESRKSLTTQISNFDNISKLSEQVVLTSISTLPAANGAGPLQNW

Row | IC50 [nM] | Compound
1 | > 5000 | C[C@@H]1CCCN(C(=O)c2nccc3ccccc23)[C@@H]1CNc1ncc(Cl)cn1 [Example A225, ((2S,3R)-2-(((5-Chloropyrimidin-2-yl)amino)methyl)-3-methylpiperidin-1-yl)(isoquinolin-1-yl)methanone]
2 | > 2000 | Cc1ccc(NC[C@@H]2[C@H](C)CCCN2C(=O)c2cc(C)ccc2-c2ccccn2)nc1 [Example A59, ((2S,3R)-3-Methyl-2-(((5-methylpyridin-2-yl)amino)methyl)piperidin-1-yl)(5-methyl-2-(pyridin-2-yl)phenyl)methanone]

Continued, molecule first:

Row | Compound | IC50 [nM]
3 | Cc1ccc(-n2ccc(C)n2)c(C(=O)N2CCC[C@@H](C)[C@H]2CNc2ncc(C#N)cn2)c1 [Example A131, 2-((((2S,3R)-3-Methyl-1-(5-methyl-2-(3-methyl-1H-pyrazol-1-yl)benzoyl)piperidin-2-yl)methyl)amino)pyrimidine-5-carbonitrile] | > 5000
4 | Cc1ccc(-c2ccccn2)c(C(=O)N2CCC[C@@H](C)[C@H]2CNc2ncc(C(F)(F)F)cn2)n1 [Example A167, ((2S,3R)-3-Methyl-2-(((5-(trifluoromethyl)pyrimidin-2-yl)amino)methyl)piperidin-1-yl)(6′-methyl-[2,3′-bipyridin]-2′-yl)methanone] | > 5000
5 | C[C@@H]1CCCN(C(=O)c2cc(F)c(F)cc2-n2nccn2)[C@@H]1CNc1ccc(Cl)cn1 [Example A246, ((2S,3R)-2-(((5-Chloropyridin-2-yl)amino)methyl)-3-methylpiperidin-1-yl)(4,5-difluoro-2-(2H-1,2,3-triazol-2-yl)phenyl)methanone] | > 5000
6 | Cc1ccc(-c2ccnn2C)c(C(=O)N2CCC[C@@H](C)[C@H]2CNc2ccc(F)cn2)c1 [Example A61, ((2S,3R)-2-(((5-Fluoropyridin-2-yl)amino)methyl)-3-methylpiperidin-1-yl)(5-methyl-2-(1-methyl-1H-pyrazol-5-yl)phenyl)methanone] | > 5000
7 | Cc1ccc(-c2ccn(C)n2)c(C(=O)N2CCC[C@@H](C)[C@H]2CNc2ccc(C(F)(F)F)cn2)c1 [Example A18, ((2S,3R)-3-Methyl-2-(((5-(trifluoromethyl)pyridin-2-yl)amino)methyl)piperidin-1-yl)(5-methyl-2-(1-methyl-1H-pyrazol-3-yl)phenyl)methanone] | > 4000
8 | Cc1ccc(-c2ccc(C)cc2C(=O)N2CCC[C@@H](C)[C@H]2CNc2ccc(C(F)(F)F)cn2)nc1 [Example A118, ((2S,3R)-3-Methyl-2-(((5-(trifluoromethyl)pyridin-2-yl)amino)methyl)piperidin-1-yl)(5-methyl-2-(5-methylpyridin-2-yl)phenyl)methanone] | 2200
9 | Cc1ccc(-c2cnccc2C)c(C(=O)N2CCC[C@@H](C)[C@H]2CNc2ccc(C(F)(F)F)cn2)c1 [Example A8, ((2S,3R)-3-Methyl-2-(((5-(trifluoromethyl)pyridin-2-yl)amino)methyl)piperidin-1-yl)(5-methyl-2-(4-methylpyridin-3-yl)phenyl)methanone] | > 4000
10 | Cc1ccc(-c2ncccn2)c(C(=O)N2CCC[C@@H](C)[C@H]2CNc2nc3cc(F)ccc3o2)c1 [Example A206, ((2S,3R)-2-(((5-Fluorobenzo[d]oxazol-2-yl)amino)methyl)-3-methylpiperidin-1-yl)(5-methyl-2-(pyrimidin-2-yl)phenyl)methanone] | 140

same assay, conditions: Table 2; CHO-OX2 cells, EC90 of OXA; read-out: IC50 Bioactivity OX2

Row | IC50 [nM] | Compound
11 | 1200 | Cc1nc(C(=O)N2CC(NCCO)CCC2CNC(=O)c2cccc3cccnc23)c(-c2cccc(F)c2)s1 (racemic) [Example 54, N-((1-(5-(3-Fluorophenyl)-2-methylthiazole-4-carbonyl)-5-(2-hydroxyethylamino)piperidin-2-yl)methyl)quinoline-8-carboxamide]
12 | 8 | O=C(NC[C@@H]1C[C@H](O)CN1C(=O)c1ccccc1-c1ccccc1)c1cccc2cccnc12 [Example 126, N-(((2S,4S)-1-([1,1′-Biphenyl]-2-carbonyl)-4-hydroxypyrrolidin-2-yl)methyl)quinoline-8-carboxamide]
